Data reported in patent US6623741B1, “Methods and compositions for inhibition of membrane fusion-associated events including RSV transmission” (Trimeris, Inc., priority 2000, dated 2003).

Amino acid sequences for entries named in this document (tags omitted). Residues count along the entry.
UniProt P03420, 142-302: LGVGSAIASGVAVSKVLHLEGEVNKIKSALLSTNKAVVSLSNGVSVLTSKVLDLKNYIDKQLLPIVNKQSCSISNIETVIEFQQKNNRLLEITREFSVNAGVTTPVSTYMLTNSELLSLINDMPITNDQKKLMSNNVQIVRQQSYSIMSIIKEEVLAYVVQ

Key:
[1] = tested on: RSV; assay: Anti-RSV antiviral activity assay (syncytial formation, HEp2 cells); format: cell-based, respiratory syncytial virus; settings: purified peptides
Protocol: Anti-RSV Antiviral Activity Assays:
The assay utilized herein tested the ability of the peptides to disrupt the ability of HEp2 cells acutely infected with RSV (i.e., cells which are infected with a multiplicity of infection of greater than 2) to fuse and cause syncytial formation on a monolayer of uninfected an uninfected line of Hep-2 cells. The lower the observed level of fusion, the greater the antiviral activity of the peptide was determined to be. […]
After incubation, cells in control wells were checked for fusion centers, media was removed from the wells, followed by addition, to each well, of either Crystal Violet stain or XTT. […] The number of syncytia per well were then counted, using a dissecting microscope.
With respect to XTT (2,3-bis[2-Methoxy-4-nitro-5-sulfophenyl]-2H-tetrazolium-5-carboxyanilide inner salt), 50 μl XTT (1 mg/ml in RPMI buffered with 100 mM HEPES, pH 7.2-7.4, plus 5% DMSO) were added to each well. The OD450/690 was measured (after blanking against growth medium without cells or reagents, and against reagents) according to standard procedures. […]

[2] = biological target: T1, DP107-like domain of the RSV F1-protein (MF5.1 fusion protein) (Human respiratory syncytial virus A, UniProt P03420); assay: biochemical; format: binding
T1 construct: made in house
Protocol: After incubation and washing, unbound Fab-d is removed from the plates and bound Fab-d is quantitated. A no-inhibitor control should also be conducted.
Such an assay takes advantage of accepted radioligand and receptor binding principles. (See, for example, Yamamura, H. I. et al., 1985, “Neurotransmitter Receptor Binding”, 2nd ed., Raven Press, NY.) As above, M41Δ78 is immobilized onto a solid support such as a microtiter well. […] Specific binding to M41Δ78 is defined as the difference of the binding of the labeled DP178 preparation in the microtiter wells (totals) and the binding in identical wells containing, in addition, excess unlabeled DP178 (nonspecifics).
Specifically, the DNA sequence corresponding amino acid residues 142-302 of the RSV F1 protein was amplified by PCR and cloned into the Xmn I site of the expression vector pMal-p2 (New England Biolab) to give MF5.1. These amino acid residues correspond to the extracellular domain of the RSV F1 protein including its DP107 region but excluding the DP178 region.
Cell fusion assays were performed with each of the peptides as described in Section 17 above.

## CC[C@H](C)[C@H](NC(=O)[C@H](Cc1ccccc1)NC(=O)[C@H](C)NC(=O)[C@H](CC(C)C)NC(=O)[C@H](CO)NC(=O)[C@H](CCC(N)=O)NC(=O)[C@H](CC(N)=O)NC(=O)[C@@H](NC(=O)[C@H](CCCCN)NC(=O)[C@H](CCC(=O)O)NC(=O)[C@H](CC(N)=O)NC(=O)[C@@H](NC(=O)[C@H](CCC(N)=O)NC(=O)[C@H](CO)NC(=O)[C@@H](NC(=O)[C@H](CO)NC(=O)[C@H](C)NC(=O)[C@H](CC(=O)O)NC(=O)[C@H](Cc1ccccc1)NC(=O)[C@H](CCC(=O)O)NC(=O)[C@H](CC(=O)O)NC(C)=O)[C@@H](C)CC)C(C)C)[C@@H](C)CC)C(=O)N[C@@H](CCCNC(=N)N)C(=O)N[C@@H](CCCCN)C(=O)N[C@@H](CO)C(=O)N[C@@H](CC(=O)O)C(=O)N[C@@H](CCC(=O)O)C(=O)N[C@@H](CC(C)C)C(=O)N[C@@H](CC(C)C)C(N)=O [Peptide T67]
[1]
  anti-RSV antiviral activity (in words): potent anti-viral activity
[2]
  binding affinity relative to T112: five times lower
[2]; binding affinity for the DP107-like domain of RSV F1 protein
  Kd: 5 nM
